Assay results as given in the supplement of paper PMC3974653.

test system: MTT (mouse pheochromocytoma); assay: IC50 of cell viability (ATP content); settings: (24 or 48 h)
Outline: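 After overnight culture at 37°C, 5% CO2 in white 1536-well plates, MTT mouse pheochromocytoma cells were given 23 nl of library compound in DMSO by pintool across 8 concentrations, spanning final 0.5 nM to 46 µM. Following 24 or 48 hrs, CellTiter-Glo luminescence was read after 15 minutes and normalised against positive-control (100%) and DMSO (0%) wells. A four-parameter logistic model provided the IC50.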

| Compound | IC50 of cell viability [µM] |
| --- | --- |
| CNC/1=[O]/[Gd+3]23456\7[O-]C(=O)C[N]2(CC[N@]3(CC(=O)[O-]4)C1)CC[N@@]5(CC(=O)[O-]6)C\C(=[O]7)NC [GADODIAMIDE] | > 46 |
| CC1C[N]23->[Gd+3]45678(<-[O-]C(=O)C[N]->4(CC[N]->5(CC(=O)[O-]->6)CC2)CC[N]->7(CC(=O)[O-]->8)CC3)<-[OH]1 (stereo not given) [GADOTERIDOL] | > 46 |
| CC1C[N]23->[Gd+3]45678(<-[O-]C(=O)C[N]->4(CC[N]->5(CC(=O)[O-]->6)CC2)CC[N]->7(CC(=O)[O-]->8)CC3)<-[OH]1 (stereo not given) [Gadoteridol] | > 46 |

Other lines, results leading:

| IC50 of cell viability [µM] | Compound |
| --- | --- |
| > 46 | CNC1C[N]23CC[N]45CC[N]67CC(=O)[O-]->[Gd+3]<-4<-2<-6(<-[O]=1)(<-[O]=C(C7)NC)(<-[O-]C(=O)C5)<-[O-]C(=O)C3 [Gadodiamide] |
| > 46 | COc1cc(Br)c(C[N+]2(CCOCCC3CCC4CC3C4(C)C)CCOCC2)cc1OC (stereo not given) [PINAVERIUM BROMIDE] |
